In the library only some 2.1% were active in any assay of this set; here they are far more common.
A549 tox – kills or reduces viability of A549 cells in Nrf2 counter-screen. 390,000 compounds, 0.16% hits. AID 504648. Potency, µM (series often up to 46 µM), for the others: at the highest dose activity change, negative = cytotoxicity, most hits filed as inhibitors. A549 ARE-Fluc cells, CellTiter-Fluor viability, 18-24 h; also: potency is read from the fitted curve at half-maximal effect; % is scaled to controls: 0 for no effect and ±100 for the full control effect
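A549 ARE-Fluc cells in 5% FBS OPTI-MEM, 5000 cells/well, rested 2 h then exposed to compounds in concentration-response for 18-24 h at 37 °C. Viability by CellTiter-Fluor fluorescence (Ex 405/Em 525) after 30 min; luciferase luminescence (BugLite, 15 min, RT) read afterwards.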
GRP78 ERSR act – induces the endoplasmic reticulum stress response in human glioma cells | U87-MG GRP78 promoter luciferase reporter, 16 h | Potency, µM, inactives show top-dose activation, hits mostly activators | 420,000 compounds, 0.02% hits | AID 602332; also: potency is read from the fitted curve at half-maximal effect; series mostly up to about 76 µM; % of control where 0% means no effect; nearly all actives have a fitted effect of over 35% in size
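Stably transfected U87-MG human glioma cells carrying a GRP78-based luminescent sensor were seeded at 1000 cells/well, pin-dosed with compounds and incubated 16 h. Luciferase reagent was then added, and end-point luminescence was read after 10 min at room temperature.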
Nrf2 inh – inhibitors of Nrf2 signaling; A549 ARE-Fluc reporter, luciferase luminescence, 18-24 h; 360,000 compounds, 2.1% hits; Potency, µM (titrated, usually from 46 µM), without a hit: top-dose activity change, negative = inhibition, most hits filed as inhibitors; also: potency is read from the fitted curve at half-maximal effect; % is scaled to controls: 0 for no effect and ±100 for the full control effect; nearly all actives have a fitted effect of over 60% in size
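Two sequential reads on A549 ARE_Fluc cells exposed to compound for 18-24 h: a CellTiter-Fluor fluorescence read for viability, then a luciferase luminescence read for Nrf2/ARE activity.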
miR-21 FLuc – raises the signal of a miR-21 reporter; HeLa miR-21 FLuc reporter, luciferase, 48 h; Potency, µM (top dose mostly 38.3 µM), for inactives: at the highest dose reporter change, positive = more light; AID 2288; 340,000 tested, under 10 active; active = well fitted rising curve with a large enough effect; inconclusive = small, poorly fitted or top-dose-only effect; inactive = no such curve, though single readings can be large or run the other way;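 note: % of control where 0% means no effect; miR-21 action dims this reporter so a rising signal means less miR-21 action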
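HeLa cells endogenously expressing miR-21, stably carrying CMV-driven firefly luciferase with a downstream miR-21 binding site, 2000 cells/well. Titrations up to approximately 40 uM, 48 hours; luciferase luminescence read.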
Nrf2 activator – Nrf2 pathway activation; AREc32 ARE-luciferase reporter (MCF7-derived line), luminescence, 24 h; Potency, µM (highest dose often 46.1 µM), for the others: at the top dose activation, hits mostly activators; 410,000 compounds, 0.31% hits; also: potency is read from the fitted curve at half-maximal effect; % of control where 0% means no effect; nearly all actives have a fitted effect of over 65% in size
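AREc32 cells carrying an ARE-driven firefly luciferase, 1000 cells/well in OPTI-MEM with 5% FBS, dosed after overnight attachment and incubated 24 hr at 37 deg C. Steady-Glo luminescence read after 30 min at RT.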
PTAP TSG101 blk – blocks PTAP/TSG101 interaction to inhibit HIV-1 budding; 340,000 tested, under 10 active; AID 493005; Fluorescence polarization, FITC-PTAP peptide / Tsg101 binding; Q99816; Potency, µM (series often up to 115 µM), inactives show top-dose activity change, negative = inhibition, actives largely listed as inhibitors; active = well fitted inhibition curve with a large enough effect in the main read-out, with a control signal flat, not every such curve was filed as active; inconclusive = small, poorly fitted or top-dose-only effect, or effect the other way, or a change in a side signal; inactive = no such curve, though single readings can be large or run the other way; also: potency is read from the fitted curve at half-maximal effect; % of control where 0% means no effect
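Fluorescence polarization binding of Tsg101 binding domain (10 uM final) to FITC-labeled PTAP peptide (50 nM final) in HEPES pH 7.5 buffer with NaCl, Tween 20, EDTA, TCEP. Compounds added before peptide; binding 20 min at RT.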
Starred values were filed as active, the others as inactive; u = inconclusive; x = no result given. Unless noted, calls follow the shape of the dose curve; as a rule, active = well fitted curve in the direction sought with a large enough effect; inconclusive = small, poorly fitted or top-dose-only effect, or another doubt; inactive = no such curve, though single readings can be large; an effect the other way counts as inactive or inconclusive.

Start of the data: the first two entries, ahead of the listing:
Abbreviations – A = A549 tox; B = GRP78 ERSR act; C = Nrf2 inh; D = miR-21 FLuc; E = Nrf2 activator; F = PTAP TSG101 blk
#1 CN(C)/[N+]([O-])=N\Oc1cc(OC(=O)c2ccc(N)cc2)c([N+](=O)[O-])cc1[N+](=O)[O-]
  A: x | B: 0% | C: x | D: x | E: x | F: x
#2 CCCCN1CC[C@H]2C=CC[C@@H](C(=O)NCc3cccnc3)[C@H]2C1=O
  A: x | B: -2% | C: x | D: x | E: x | F: x

Main list, from the first entry:
Abbreviations – A = A549 tox; B = GRP78 ERSR act; C = Nrf2 inh; D = miR-21 FLuc; E = Nrf2 activator; F = PTAP TSG101 blk
#1 CN(C)/[N+]([O-])=N\Oc1cc(OC(=O)c2ccc(N)cc2)c([N+](=O)[O-])cc1[N+](=O)[O-]
  A: x | B: 0% | C: x | D: x | E: x | F: x
#2 CCCCN1CC[C@H]2C=CC[C@@H](C(=O)NCc3cccnc3)[C@H]2C1=O
  A: x | B: -2% | C: x | D: x | E: x | F: x
#3 Brc1cc(Br)c[n+](CCc2ccccc2)c1
  A: x | B: -3% | C: x | D: x | E: x | F: x
#4 COc1ccc(OC)c(C(Cc2ccnc3ccccc23)Cc2ccnc3ccccc23)c1
  A: x | B: -4% | C: x | D: x | E: x | F: x
#5 O=C(NCC(=O)N1CCN(Cc2ccccc2)CC1)c1ccc(Br)cc1
  A: -12% | B: -4% | C: u | D: 24% | E: 0% | F: 2%
#6 O=C(NCC(=O)N1CCN(Cc2ccccc2)CC1)c1ccc(Cl)cc1
  A: -16% | B: -4% | C: 29µM* | D: 24% | E: 0% | F: -1%
#7 C=CCC[C@H](Cc1ccc(F)cc1)C(=O)OC[C@@H](Cc1c[nH]c2ccccc12)NC(=O)[C@H](CC=C)CC(=O)N(CCO)Cc1ccccc1
  A: u | B: -4% | C: 21µM* | D: x | E: -2% | F: x
#8 C=CCC[C@H](Cc1ccc(F)cc1)C(=O)OC[C@@H](Cc1c[nH]c2ccccc12)NC(=O)[C@H](CC=C)CC(=O)NCCO
  A: -12% | B: -4% | C: -24% | D: x | E: 0% | F: 0%
#9 C=CCC[C@@H](Cc1ccc(F)cc1)C(=O)OC[C@@H](Cc1c[nH]c2ccccc12)NC(=O)[C@H](CC=C)CC(=O)N(CCO)Cc1ccccc1
  A: u | B: 0% | C: 23µM* | D: x | E: -5% | F: -4%
#10 C=CC[C@H](CC(=O)N(CCO)Cc1ccccc1)C(=O)N[C@@H](COC(=O)[C@@H](CC=C)Cc1ccc(F)cc1)Cc1c[nH]c2ccccc12
  A: u | B: 1% | C: 18µM* | D: x | E: -2% | F: -4%
#11 C=CC[C@@H](CC(=O)N(CCO)Cc1ccccc1)C(=O)N[C@@H](COC(=O)[C@@H](CC=C)Cc1ccc(F)cc1)Cc1c[nH]c2ccccc12
  A: u | B: -7% | C: u | D: x | E: -4% | F: -4%
#12 COc1cccc(C2c3c(ncn(-c4cccc(F)c4)c3=N)Oc3ccc4ccccc4c32)c1 (configuration not stated)
  A: -1% | B: x | C: u | D: x | E: x | F: x
#13 COc1ccc(OC)c(-n2nnnc2SCC(=O)Nc2ccc(C(=O)N3CCCCC3)cc2)c1
  A: -13% | B: 2% | C: 18µM* | D: 12% | E: 2% | F: -11%
#14 COc1ccc(OC)c(-n2nnnc2SCC(=O)Nc2ccc3c(c2)OCCO3)c1
  A: -12% | B: -2% | C: -15% | D: -16% | E: 0% | F: -4%
#15 O=C1C[C@H]2C=CCc3cccc(c32)CN1Cc1cccc(F)c1
  A: x | B: 2% | C: x | D: x | E: x | F: x
#16 O=C(NCc1ccccn1)c1cccc(S(=O)(=O)Nc2ccc(SC(F)F)cc2)c1
  A: -5% | B: -2% | C: -28% | D: x | E: 0% | F: -2%
#17 O=C(NCc1ccncc1)c1cccc(S(=O)(=O)Nc2ccc(SC(F)F)cc2)c1
  A: -21% | B: -4% | C: 15µM* | D: x | E: 0% | F: 0%
#18 Cc1cc2c(c(-c3ccc(Cl)cc3)c1)OC(CNC(=O)Cc1c(C)noc1C)C2 (configuration not stated)
  A: x | B: -4% | C: x | D: x | E: x | F: x
#19 CC(C)(C)c1ccc(C(=O)Nc2ccc(CC(=O)O)cc2)o1
  A: 1% | B: -13% | C: 3.7µM* | D: u | E: -2% | F: -4%
#20 CC1=C/C(=C(\c2cc(C)c(O)c(Br)c2)c2ccccc2S(=O)(=O)O)C=C(Br)C1=O
  A: 16µM* | B: -11% | C: u | D: 27% | E: -3% | F: -13%
#21 Cc1cc(C(=O)c2ccccc2)cc(C)c1O
  A: 1% | B: 2% | C: 16% | D: x | E: 0% | F: 2%
#22 CCN(CC)c1ccc(NC(=O)C2CCCN(S(=O)(=O)c3cnc[nH]3)C2)c(C)c1 (configuration not stated)
  A: 1% | B: -3% | C: 23µM* | D: -7% | E: -1% | F: -2%
#23 Cc1ccc(NC(=O)C2CCCN(S(=O)(=O)c3cnc[nH]3)C2)cc1C (configuration not stated)
  A: 2% | B: -2% | C: -13% | D: -4% | E: -1% | F: -2%
#24 COC(=O)/C=C/c1ccc2c(c1)S(=O)(=O)N(C1CCCC1)[C@H]2CC(=O)OC
  A: x | B: 2% | C: x | D: x | E: x | F: x

Bioassay records from PubChem.
